# Yeast mating assay 2: variants of the scFv Ab-91

Source: Engelhart et al. 2022 (doi:10.1038/s41597-022-01779-4), MIT Lincoln Laboratory and A-Alpha Bio; data file from the FLAb repository.

Binding partner: SARS-CoV-2 spike HR2 peptide, sequence PDVDLGDISGINAS.

Ab-91 is the parent antibody, in scFv form: VL, then three GGGGS repeats, then VH. The light chain is unchanged in all variants.
VL: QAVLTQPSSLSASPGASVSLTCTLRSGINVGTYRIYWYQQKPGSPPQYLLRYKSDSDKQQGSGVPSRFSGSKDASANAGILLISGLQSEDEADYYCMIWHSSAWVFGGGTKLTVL
VH: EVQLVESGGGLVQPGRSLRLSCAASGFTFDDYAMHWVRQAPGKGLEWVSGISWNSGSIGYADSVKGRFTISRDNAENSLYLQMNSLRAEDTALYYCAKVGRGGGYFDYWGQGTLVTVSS

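The starting antibody came from a phage panning campaign against this peptide. The library (AAYL51) carries one to three amino acid substitutions per variant, with no insertions or deletions. AlphaSeq pools MATa yeast showing the antibodies with MATalpha yeast showing the peptide. Mating (16 h, 30 °C) was followed by selection of diploids and sequencing of their barcodes. Read counts were normalised to the haploid input and turned into Kd by a linear fit to BCL2-family pairs of known affinity, for each replicate. Each pool was mated in three replicate cultures.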

The whole VH of each variant is written out.
Numbers give log10(Kd / nM), so 0 is 1 nM and 3 is 1 µM. Smaller is tighter.
A mean of the replicates is given; it leaves out those without a signal.
An entry "ND" has no value in the source: the pair was not observed among the diploids in that replicate. This suggests poor binding but is not conclusive.

{"VH": "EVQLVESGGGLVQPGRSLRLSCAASGFTFDDYAMHWVRQAPGKGLEWVSGISRNSGSIGYADSVKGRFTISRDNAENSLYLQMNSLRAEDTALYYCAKVGRGNGYADYWGQGTLVTVSS", "log10 Kd, replicates": "3.73 / ND / ND", "log10 Kd (nM), mean": "3.73", "control signals": "0/9"}
{"VH": "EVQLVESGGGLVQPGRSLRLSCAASGFTFDDYNMHWVRQAPGKGLEWVSGISWNSGYIGYADSYKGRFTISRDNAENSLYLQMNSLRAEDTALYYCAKVGRGGGYFDYWGQGTLVTVSS", "log10 Kd, replicates": "6.03 / 5.34 / 3.56", "log10 Kd (nM), mean": "4.98", "control signals": "4/9 (4.55)"}
{"VH": "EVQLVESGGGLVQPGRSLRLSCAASGFTFDDYAMHWVRQAPGKGLEWVSGPSWNSGSIGMADSVKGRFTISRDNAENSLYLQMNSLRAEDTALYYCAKVGRGGGYFDCWGQGTLVTVSS", "log10 Kd, replicates": "ND / ND / ND", "log10 Kd (nM), mean": "ND", "control signals": "2/9 (4.11)"}
{"VH": "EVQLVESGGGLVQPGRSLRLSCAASGFTFDDYAMHWVRQAPGKGLEWVSGISPVSGSIGYADSVFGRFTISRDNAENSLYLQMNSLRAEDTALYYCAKVGRGGGYFDYWGQGTLVTVSS", "log10 Kd, replicates": "1.91 / 2.20 / 1.85", "log10 Kd (nM), mean": "1.99", "control signals": "0/9"}
{"VH": "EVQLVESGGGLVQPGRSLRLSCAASGFTFDDYAMHWVRQAPGKGLEWVSGISWNSGNIGYADGVKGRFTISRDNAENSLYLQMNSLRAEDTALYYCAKVGRGGGYFYYWGQGTLVTVSS", "log10 Kd, replicates": "2.78 / 3.21 / 2.94", "log10 Kd (nM), mean": "2.98", "control signals": "1/9 (4.55)"}
{"VH": "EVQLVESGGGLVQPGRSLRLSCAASGFTFDDYAMHWVRQAPGKGLEWVSGINWNSGSAGYADSNKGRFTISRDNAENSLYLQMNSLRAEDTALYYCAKVGRGGGYFDYWGQGTLVTVSS", "log10 Kd, replicates": "ND / ND / ND", "log10 Kd (nM), mean": "ND", "control signals": "1/9 (4.24)"}
{"VH": "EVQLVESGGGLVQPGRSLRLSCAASGFTFDDYAMHWVRQAPGKGLEWVSGISWNNGSITYADSVKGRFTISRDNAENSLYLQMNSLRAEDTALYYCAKVIRGGGYFDYWGQGTLVTVSS", "log10 Kd, replicates": "4.21 / ND / ND", "log10 Kd (nM), mean": "4.21", "control signals": "0/9"}
{"VH": "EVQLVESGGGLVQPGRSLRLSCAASGFTFDDYMMHWVRQAPGKGLEWVSGISWNSGSIGYADSVKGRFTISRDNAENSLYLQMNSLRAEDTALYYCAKVFRGGGYFDYWGQGTLVTVSS", "log10 Kd, replicates": "ND / ND / ND", "log10 Kd (nM), mean": "ND", "control signals": "1/9 (2.95)"}
{"VH": "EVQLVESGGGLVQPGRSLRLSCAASGFTFTDYAMHWVRQAPGKGLEWVSGISWNSGSIGYKDSVKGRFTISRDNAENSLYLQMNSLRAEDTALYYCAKVGRGGGYFDYWGQGTLVTVSS", "log10 Kd, replicates": "ND / ND / ND", "log10 Kd (nM), mean": "ND", "control signals": "0/9"}
{"VH": "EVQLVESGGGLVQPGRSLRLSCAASGFTFDDYYMHWVRQAPGKGLEWVSGYSWNSGSIGYPDSVKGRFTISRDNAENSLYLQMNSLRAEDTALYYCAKVGRGGGYFDYWGQGTLVTVSS", "log10 Kd, replicates": "ND / ND / ND", "log10 Kd (nM), mean": "ND", "control signals": "2/9 (5.14)"}
{"VH": "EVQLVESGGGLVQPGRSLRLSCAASGFTFDDYNMHWVRQAPGKGLEWVSGISWHDGSIGYADSVKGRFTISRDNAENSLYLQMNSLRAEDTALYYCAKVGRGGGYFDYWGQGTLVTVSS", "log10 Kd, replicates": "2.83 / ND / ND", "log10 Kd (nM), mean": "2.83", "control signals": "1/9 (4.89)"}
{"VH": "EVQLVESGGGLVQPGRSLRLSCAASMFSFDDYAMHWVRQAPGKGLEWVSGISWNSGSIGYADSVKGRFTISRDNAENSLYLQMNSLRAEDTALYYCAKVGRGGGAFDYWGQGTLVTVSS", "log10 Kd, replicates": "3.26 / 3.77 / ND", "log10 Kd (nM), mean": "3.51", "control signals": "1/9 (3.76)"}
{"VH": "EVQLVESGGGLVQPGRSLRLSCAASGFTFDDYAMHWVRQAPGKGLEWVSGISSFSGSIGYADSVKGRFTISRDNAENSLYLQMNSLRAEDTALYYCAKVGRGGGYVDYWGQGTLVTVSS", "log10 Kd, replicates": "5.98 / 5.69 / ND", "log10 Kd (nM), mean": "5.84", "control signals": "2/9 (4.74)"}
{"VH": "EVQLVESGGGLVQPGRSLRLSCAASGFTFDDYAMHWVRQAPGKGLEWVSGISWNVGSIGYACSVKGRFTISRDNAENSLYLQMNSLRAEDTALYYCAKVSRGGGYFDYWGQGTLVTVSS", "log10 Kd, replicates": "ND / ND / ND", "log10 Kd (nM), mean": "ND", "control signals": "0/9"}
{"VH": "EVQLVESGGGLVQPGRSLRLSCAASGFTFDDYAMHWVRQAPGKGLEWVSGISWASGSIGYADRVMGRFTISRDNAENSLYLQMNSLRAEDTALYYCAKVGRGGGYFDYWGQGTLVTVSS", "log10 Kd, replicates": "4.88 / ND / ND", "log10 Kd (nM), mean": "4.88", "control signals": "7/9 (4.76)"}
{"VH": "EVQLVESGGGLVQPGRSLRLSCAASGFTFDDYAMHWVRQAPGKGLEWVSGISWNSGSIGYAILVKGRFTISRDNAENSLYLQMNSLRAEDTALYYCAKVGNGGGYFDYWGQGTLVTVSS", "log10 Kd, replicates": "ND / ND / ND", "log10 Kd (nM), mean": "ND", "control signals": "1/9 (2.88)"}

Three control strains display no target. For library AAYL51, 21% of the pairings with them gave a signal, with a median of 4.54 and one signal in twenty below 3.26, so weak values seen in few replicates may be background. The control count says in how many pairings with the empty strains this scFv gave a signal, with their mean in brackets.
Parent in this assay: reference entry 1.86, copy in this library 0.88.